Test results: US10512644B2, “Oligomer-opioid agonist conjugates” (Nektar Therapeutics, priority 2007, dated 2019)

Chains of the proteins cited; added tags and fusions are not shown.
UniProt P41143, whole entry, looked up: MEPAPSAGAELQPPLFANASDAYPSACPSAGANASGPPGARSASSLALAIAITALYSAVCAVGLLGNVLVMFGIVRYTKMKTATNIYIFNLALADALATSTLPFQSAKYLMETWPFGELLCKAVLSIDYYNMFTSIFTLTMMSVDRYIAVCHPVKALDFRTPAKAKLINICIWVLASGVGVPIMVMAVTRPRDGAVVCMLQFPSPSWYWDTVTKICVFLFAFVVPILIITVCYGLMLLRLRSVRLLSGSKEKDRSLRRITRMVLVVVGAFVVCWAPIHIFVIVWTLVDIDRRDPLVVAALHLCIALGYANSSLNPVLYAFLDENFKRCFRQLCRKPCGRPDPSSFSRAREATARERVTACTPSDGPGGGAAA

Legend:
[1] = Plasma pharmacokinetics after intravenous dosing in male Sprague-Dawley rats; settings: IV 1 mg/kg
[2] = target: T1, recombinant human kappa opioid receptor (Homo sapiens (Human), UniProt P41145); format: binding; settings: read-out: Ki at KAPPA receptors
[3] = target: T2, mu opioid receptor (Homo sapiens (Human), UniProt P35372); format: binding; settings: read-out: Ki at MU Receptors
[4] = target: T3, recombinant human delta opioid receptor (Homo sapiens (Human), UniProt P41143); experiment: Radioligand competition binding in whole CHO cells, delta opioid receptor (3H DPDPE); settings: 0.5 nM 3H DPDPE, read-out: Ki at DELTA Receptors
[5] = target: T1, recombinant human kappa opioid receptor; format: biochemical; settings: read-out: Kappa Agonist EC50, GTP-γS Binding
[6] = target: T2, mu opioid receptor; format: biochemical; settings: read-out: Mu Antagonist IC50, GTP-γS Binding
[7] = target: T3, recombinant human delta opioid receptor; experiment: GTPγS binding assay, delta opioid receptor, CHO cell membranes; format: biochemical; settings: antagonist mode vs 0.1 μM DPDPE; read-out: Delta IC50, GTP-γS Binding

Substance | clearance, fold decrease vs parent [1] [fold] | mean volume of distribution (steady state), fold decrease vs parent [1] [fold] | Ki [2] [nM] | Ki [3] [nM] | Ki [4] [nM] | EC50 [5] [nM] | IC50 [6] [nM] | IC50 [7] [nM]
α-6-mPEG6-O-codeine | 4 | 4 |  |  |  |  |  | 
6-O-mPEG9-nalbuphine |  |  | 186 | 122 | 158 | 485 | 1010 | 8970
